Results from patent US20150065556A1, “THERAPEUTIC TARGETS FOR MITOCHONDRIAL DISORDERS” (Whitehead Institute for Biomedical Research, priority 2013, published 2015).

System: KBM7 cells
Assay: Viability/proliferation of wild type and ATPIF1 null KBM7 cells treated with mitochondrial poisons (7-AAD, FACS)
Assay type: cell-based, human
Description: In order to identify potential drug targets for treatment of mitochondrial disorders, we decided to use inhibitors of oxidative phosphorylation (OXPHOS) to model mitochondrial diseases and search for genes, loss-of-function of which can confer resistance to mitochondrial dysfunction caused by the poison. To that end, we explored use of a screening platform based on gene inactivation in human cells using insertional mutagenesis that has recently been developed using the KBM7 CML cell line, which is haploid for all chromosomes except chromosome 8 (5). In this system, insertional mutagenesis is accomplished using a gene trap vector. […]
For the viability assays described in this Example and Example 2, 200,000 cells were used for each sample. Cells were treated with the desired concentration of drug and viability was assessed four days later using 7-AAD and FACS analysis.
Suspension cells were kept on ice, then spun at 4000 rpm for 5 minutes at 4° C. in a table-top microcentrifuge, supernatant aspirated, cells washed once with ice-cold PBS, resuspended in ice-cold PBS with 2 ug/mL 7-AAD viability dye, incubated for 5 minutes on ice, and analyzed by FACS. […] Viability was assessed by 7-AAD exclusion. […] For primary hepatocytes, 100,000 cells were seeded per well of a 24-well TPP plate (Light Labs), treated with antimycin, and then analyzed using CellTiter-Glo.

antimycin A
control (unmutagenized) KBM7 cells killed (lethal): more than 99.99%
